Our source for the IC50 values is patent US9637455B2, “Heterocyclic sulfone RORγ modulators” (BRISTOL-MYERS SQUIBB COMPANY, priority 2014, dated 2017).

Sequences of proteins named here, by UniProt entry; tags and fusion partners are left off. Residues count along the entry.
UniProt P51449, 262-507 limits assumed: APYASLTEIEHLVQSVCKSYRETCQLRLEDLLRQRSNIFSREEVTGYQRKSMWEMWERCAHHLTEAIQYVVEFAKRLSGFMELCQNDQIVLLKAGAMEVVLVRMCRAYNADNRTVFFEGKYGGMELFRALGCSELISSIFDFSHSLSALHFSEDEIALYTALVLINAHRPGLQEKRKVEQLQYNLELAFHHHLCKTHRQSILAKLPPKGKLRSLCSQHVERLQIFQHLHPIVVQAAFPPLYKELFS

The target of this assay is ligand binding domain of human RORγ (A262-S507) (Homo sapiens (Human), UniProt P51449). As to the kind of experiment: biochemical.

The IC50 is the concentration that gives 50% inhibition.

Molecules are shown by their SMILES.

Compound `O=C(N1CCC(O)(C(F)(F)F)CC1)N1CCCC(c2ccc(C(OCc3c(F)cccc3F)(C(F)(F)F)C(F)(F)F)cc2)(S(=O)(=O)c2ccc(F)cc2)C1` (stereo not shown) [Example 2, (3-(4-(2-((2,6-difluorobenzyl)oxy)-1,1,1,3,3,3-hexafluoropropan-2-yl)phenyl)-3-((4-fluorophenyl)sulfonyl)piperidin-1-yl)(4-hydroxy-4-(trifluoromethyl)piperidin-1-yl)methanone] had an IC50 of 2630 nM.
